Measured values from ChEMBL document CHEMBL1138857, “Quinol-4-ones as steroid A-ring mimetics in nonsteroidal dissociated glucocorticoid agonists” (J Med Chem, 2006).

Target: T1, Progesterone receptor (Homo sapiens, UniProt P06401)
T1 sequence (P06401 whole entry): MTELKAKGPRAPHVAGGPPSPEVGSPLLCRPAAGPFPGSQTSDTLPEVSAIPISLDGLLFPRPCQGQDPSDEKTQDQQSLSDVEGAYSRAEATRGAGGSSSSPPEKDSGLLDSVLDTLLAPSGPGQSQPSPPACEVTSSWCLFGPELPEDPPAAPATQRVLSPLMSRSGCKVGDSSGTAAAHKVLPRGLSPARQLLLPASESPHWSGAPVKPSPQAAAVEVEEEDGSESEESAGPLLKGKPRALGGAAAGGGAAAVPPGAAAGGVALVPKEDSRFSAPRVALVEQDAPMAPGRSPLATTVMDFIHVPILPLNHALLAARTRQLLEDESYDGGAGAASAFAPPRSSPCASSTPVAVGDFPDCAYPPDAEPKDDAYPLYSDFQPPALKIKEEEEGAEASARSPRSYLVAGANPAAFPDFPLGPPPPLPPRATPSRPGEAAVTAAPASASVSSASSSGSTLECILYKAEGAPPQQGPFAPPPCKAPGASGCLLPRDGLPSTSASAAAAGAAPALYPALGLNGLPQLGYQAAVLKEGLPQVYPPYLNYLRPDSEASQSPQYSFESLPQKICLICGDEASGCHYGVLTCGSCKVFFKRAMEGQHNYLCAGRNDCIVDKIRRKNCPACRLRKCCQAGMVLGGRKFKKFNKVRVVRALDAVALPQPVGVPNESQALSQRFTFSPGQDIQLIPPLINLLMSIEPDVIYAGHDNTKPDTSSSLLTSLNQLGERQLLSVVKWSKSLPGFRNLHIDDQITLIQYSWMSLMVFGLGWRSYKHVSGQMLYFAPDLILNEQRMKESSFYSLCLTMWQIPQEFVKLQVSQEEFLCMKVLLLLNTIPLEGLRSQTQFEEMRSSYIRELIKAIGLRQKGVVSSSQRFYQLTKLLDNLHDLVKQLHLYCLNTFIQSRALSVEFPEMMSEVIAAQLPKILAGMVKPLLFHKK
Assay: Inhibition of tetramethylrhodamine labeled RU486 binding to PR by FP assay

Cc1noc(=O)c2ccc(NC(=O)C(O)(CC(C)(C)c3cccc4c3OCC4)C(F)(F)F)cc12 (stereo unspecified) was tested, and the IC50 was 19 nM.
